Measurements published in US20090099157A1, “TETRAHYDRO-PYRAZOLO-PYRIDINE THIOETHER MODULATORS OF CATHEPSIN S” (priority 2007, published 2009).

Chains of the proteins cited; added tags and fusions are not shown. Residues count along the entry.
UniProt P25774, 115-331: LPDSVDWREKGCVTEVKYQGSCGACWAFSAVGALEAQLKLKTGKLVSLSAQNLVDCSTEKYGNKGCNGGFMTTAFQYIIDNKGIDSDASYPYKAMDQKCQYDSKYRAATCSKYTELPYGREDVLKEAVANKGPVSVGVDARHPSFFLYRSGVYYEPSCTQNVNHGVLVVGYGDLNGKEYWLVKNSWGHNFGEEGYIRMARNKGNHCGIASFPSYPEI

Each compound was assayed against Recombinant human cathepsin S (CatS) (Homo sapiens, UniProt P25774) (assay: biochemical).

| Structure (SMILES) | IC50 |
| --- | --- |
| CS(=O)(=O)N1CCc2c(c(-c3ccc(C(F)(F)F)c(SCCN4CCOC(CO)C4)c3)nn2CC(O)CN2CCC(C(=O)N3CCCC3)CC2)C1 (centres unmarked) [Example 850, 1-{3-[3-({2-[2-(Hydroxymethyl)morpholin-4-yl]ethyl}sulfanyl)-4-(trifluoromethyl)phenyl]-5-(methylsulfonyl)-4,5,6,7-tetrahydro-1H-pyrazolo[4,3-c]pyridin-1-yl}-3-[4-(pyrrolidin-1-ylcarbonyl)piperidin-1-yl]propan-2-ol] | 100 nM |
| CC(C)(C)C1CCN(C[C@H](O)Cn2nc(-c3ccc(C(F)(F)F)c(SCCN4CCCC(F)(F)C4)c3)c3c2CCN(S(C)(=O)=O)C3)CC1 [Example 707, (2S)-1-{3-[3-{[2-(3,3-Difluoropiperidin-1-yl)ethyl]sulfanyl}-4-(trifluoromethyl)phenyl]-5-(methylsulfonyl)-4,5,6,7-tetrahydro-1H-pyrazolo[4,3-c]pyridin-1-yl}-3-[4-(1,1-dimethylethyl)piperidin-1-yl]propan-2-ol] | 70 nM |
| COc1ccccc1C1CCN(CC(O)Cn2nc(-c3ccc(C(F)(F)F)c(SCCN4CCCCC4)c3)c3c2CCN(C)C3)CC1 (centres unmarked) [Example 541, 1-{4-[2-(Methyloxy)phenyl]piperidin-1-yl}-3-(5-methyl-3-{3-[(2-piperidin-1-ylethyl)sulfanyl]-4-(trifluoromethyl)phenyl}-4,5,6,7-tetrahydro-1H-pyrazolo[4,3-c]pyridin-1-yl)propan-2-ol] | 200 nM |
| CS(=O)(=O)N1CCc2c(c(-c3ccc(C(F)(F)F)c(SCCN4CCC[C@H](O)C4)c3)nn2C[C@@H](O)CN2CCOCC2)C1 [Example 287, (3S)-1-(2-{[5-{1-[(2S)-2-Hydroxy-3-morpholin-4-ylpropyl]-5-(methylsulfonyl)-4,5,6,7-tetrahydro-1H-pyrazolo[4,3-c]pyridin-3-yl}-2-(trifluoromethyl)phenyl]sulfanyl}ethyl)piperidin-3-ol] | 1060 nM |
| CS(=O)(=O)N1CCc2c(c(-c3ccc(C(F)(F)F)c(SCCNC(=O)c4ccc(F)cc4)c3)nn2CC(O)CN2CCC(N3CCCC3=O)CC2)C1 (centres unmarked) [Example 118, 4-Fluoro-N-{2-[5-(1-{2-hydroxy-3-[4-(2-oxo-pyrrolidin-1-yl)-piperidin-1-yl]-propyl}-5-methanesulfonyl-4,5,6,7-tetrahydro-1H-pyrazolo[4,3-c]pyridin-3-yl)-2-trifluoromethyl-phenylsulfanyl]-ethyl}-benzamide] | 360 nM |
| CS(=O)(=O)N1CCc2c(c(-c3ccc(C(F)(F)F)c(SCCN4CNC(=O)C4)c3)nn2CCCN2CCCCC2)C1 [Example 324, 1-[2-({5-[5-(Methylsulfonyl)-1-(3-piperidin-1-ylpropyl)-4,5,6,7-tetrahydro-1H-pyrazolo[4,3-c]pyridin-3-yl]-2-(trifluoromethyl)phenyl}sulfanyl)ethyl]imidazolidin-4-one] | 1830 nM |
| CS(=O)(=O)N1CCc2c(c(-c3ccc(C(F)(F)F)c(SCCN4CCCC(F)(F)C4)c3)nn2C[C@@H](O)CN2CCC(NC(=O)CO)CC2)C1 [Example 209, N-{1-[(2S)-3-{3-[3-{[2-(3,3-Difluoropiperidin-1-yl)ethyl]sulfanyl}-4-(trifluoromethyl)phenyl]-5-(methylsulfonyl)-4,5,6,7-tetrahydro-1H-pyrazolo[4,3-c]pyridin-1-yl}-2-hydroxypropyl]piperidin-4-yl}-2-hydroxyacetamide] | 20 nM |
| COCC(=O)N1CCc2c(c(-c3ccc(C(F)(F)F)c(SCCN4CCOCC4)c3)nn2CC(O)CN2CCCCC2)C1 (centres unmarked) [Example 335, 1-(5-[(Methyloxy)acetyl]-3-{3-[(2-morpholin-4-ylethyl)sulfanyl]-4-(trifluoromethyl)phenyl}-4,5,6,7-tetrahydro-1H-pyrazolo[4,3-c]pyridin-1-yl)-3-piperidin-1-ylpropan-2-ol] | 1390 nM |
